Chains of the proteins cited; added tags and fusions are not shown.
UniProt P15056, whole entry: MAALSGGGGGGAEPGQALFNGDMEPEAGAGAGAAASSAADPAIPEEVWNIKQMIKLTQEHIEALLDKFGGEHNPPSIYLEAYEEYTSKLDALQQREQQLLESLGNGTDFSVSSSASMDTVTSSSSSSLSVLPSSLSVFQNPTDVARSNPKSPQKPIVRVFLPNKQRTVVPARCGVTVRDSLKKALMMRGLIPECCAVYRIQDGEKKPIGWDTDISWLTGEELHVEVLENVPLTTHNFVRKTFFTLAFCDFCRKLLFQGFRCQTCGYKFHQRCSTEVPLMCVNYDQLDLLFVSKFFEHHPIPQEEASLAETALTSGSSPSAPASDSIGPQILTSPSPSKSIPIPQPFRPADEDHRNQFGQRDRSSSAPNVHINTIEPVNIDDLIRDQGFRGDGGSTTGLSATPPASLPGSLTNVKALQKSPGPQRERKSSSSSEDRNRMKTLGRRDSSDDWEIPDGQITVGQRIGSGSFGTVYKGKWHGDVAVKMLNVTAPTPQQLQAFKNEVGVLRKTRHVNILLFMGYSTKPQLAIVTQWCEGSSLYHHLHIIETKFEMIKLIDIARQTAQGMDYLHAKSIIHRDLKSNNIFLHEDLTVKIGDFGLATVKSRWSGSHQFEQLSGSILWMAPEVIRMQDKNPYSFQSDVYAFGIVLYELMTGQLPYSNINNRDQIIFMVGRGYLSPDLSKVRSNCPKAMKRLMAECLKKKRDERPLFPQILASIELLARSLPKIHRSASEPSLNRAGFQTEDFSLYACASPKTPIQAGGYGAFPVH
UniProt P04049, whole entry: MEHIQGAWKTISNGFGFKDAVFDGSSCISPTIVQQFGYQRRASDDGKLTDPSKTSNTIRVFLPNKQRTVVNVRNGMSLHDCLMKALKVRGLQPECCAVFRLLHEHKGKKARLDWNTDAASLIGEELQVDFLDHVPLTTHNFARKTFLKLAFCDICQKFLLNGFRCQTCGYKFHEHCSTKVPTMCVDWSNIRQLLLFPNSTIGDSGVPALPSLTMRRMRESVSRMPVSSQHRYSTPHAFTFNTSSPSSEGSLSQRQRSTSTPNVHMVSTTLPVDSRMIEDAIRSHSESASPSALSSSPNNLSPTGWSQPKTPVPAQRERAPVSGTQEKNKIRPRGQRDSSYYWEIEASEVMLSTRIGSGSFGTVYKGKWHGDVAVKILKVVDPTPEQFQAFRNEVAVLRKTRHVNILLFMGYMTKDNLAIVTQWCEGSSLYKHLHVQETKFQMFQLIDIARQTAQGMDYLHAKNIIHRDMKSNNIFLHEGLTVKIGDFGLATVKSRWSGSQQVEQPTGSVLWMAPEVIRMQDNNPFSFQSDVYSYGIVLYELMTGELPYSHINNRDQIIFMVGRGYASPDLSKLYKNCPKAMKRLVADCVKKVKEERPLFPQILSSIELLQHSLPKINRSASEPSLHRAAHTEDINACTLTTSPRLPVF

In patent US12139488B2, “Pyrido[3,2-d]pyrimidine compounds uses thereof for treating a proliferative disease” (Universite de Montreal, priority 2021, dated 2024):

Key:
[1] = target: BRAF (Homo sapiens (Human), UniProt P15056); test: BRAF kinase activity assay (ADP-Glo)
[2] = target: CRAF (Homo sapiens, UniProt P04049); test: CRAF kinase activity assay (ADP-Glo)
[3] = test system: pERK in HCT-116 cells (KRAS G13D); test: Phospho-ERK inhibition (AlphaLISA SureFire Ultra p-ERK 1/2), HCT116; settings: for HCT116 pERK % Ymin (lowest value of the IC50 curve): Ymin above −20% = minimal or no paradoxical activation
Procedure, shortened: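 Read-out: AlphaLISA p-ERK1/2 (Thr202/Tyr204) in lysates after 1 h exposure to compound in complete RPMI-1640, 5% FBS, 0.5% DMSO. Trametinib defined 100% inhibition and vehicle 0%; IC50 values come from four-parameter curves. Negative inhibition was taken as paradoxical pERK induction.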

[4] = read-out: Kinase IC50 (nM), BRAF biochemical kinase assay, BRAF
[5] = read-out: Kinase IC50 (nM), CRAF biochemical kinase assay, CRAF
[6] = read-out: HCT116 pERK IC50, HCT116 cells
[7] = read-out: Kinase IC50 (nM) BRAF
[8] = read-out: Kinase IC50 (nM) CRAF
[9] = read-out: HCT116 pERK IC50, HCT116 cells, class symbol before the bracket
[10] = lowest % inhibition value of the IC50 curve, HCT116
[11] = read-out: HCT116 pERK IC50 in μM, HCT116 cells, 1 h treatment
[12] = read-out: Kinase IC50 (nM) BRAF, tested form: formate
[13] = read-out: Kinase IC50 (nM) CRAF, tested form: formate
[14] = HCT116 cells, Ymin in brackets, tested form: formate
[15] = read-out: HCT116 pERK IC50, HCT116 cells, class symbol before the bracket, tested form: formate

| IC50 [1, 4] | IC50 [2, 5] | HCT116 pERK % Ymin (lowest value of the IC50 curve) ([3]; HCT116 cells) | IC50 [3, 6] | IC50 [1, 7] | IC50 [2, 8] | IC50 [3, 9] | SMILES | HCT116 pERK Ymin % ([3]; HCT116 cells, Ymin in brackets) | other results |
| --- | --- | --- | --- | --- | --- | --- | --- | --- | --- |
| < 1 nM | < 10 nM | 8% | < 0.5 µM |  |  |  | Cc1c(Cl)cccc1S(=O)(=O)Nc1ccc(F)c(Nc2ncnc3ccc(-n4cnc5c(N6CCC[C@H](O)C6)cccc54)nc23)c1F |  |  |
|  |  |  |  | 1 to 10 nM | 10 to 50 nM | 0.5 to 1 µM | Cc1c(Cl)cccc1S(=O)(=O)Nc1ccc(F)c(Nc2ncnc3ccc(-n4cc(C(=O)N5CCOCC5)nc4C)nc23)c1F | −10% |  |
| 1 to 10 nM | 10 to 50 nM | −4% | < 0.5 µM |  |  |  | COC1CCCN(c2cccc3c2ncn3-c2ccc3ncnc(Nc4c(F)ccc(NS(=O)(=O)c5cccc(Cl)c5Cl)c4F)c3n2)C1 (single isomer, unassigned) [676] |  |  |
| > 10 nM | > 50 nM | 6% | < 0.5 µM |  |  |  | CC1(O)CCCN(c2cccc3c2nnn3-c2ccc3ncnc(Nc4c(F)ccc(NS(=O)(=O)c5cccc(Cl)c5Cl)c4F)c3n2)CC1 (stereo not drawn) |  |  |
| 1 to 10 nM | 10 to 50 nM | −7% | < 0.5 µM |  |  |  | CCC1(O)CCN(c2cccc3c2nnn3-c2ccc3ncnc(Nc4c(F)ccc(NS(=O)(=O)c5cccc(Cl)c5Cl)c4F)c3n2)CC1 |  |  |
| 1 to 10 nM | 10 to 50 nM | 2% | < 0.5 µM |  |  |  | O=C1CCCC12CCN(c1cccc3c1ncn3-c1ccc3ncnc(Nc4c(F)ccc(NS(=O)(=O)c5cccc(Cl)c5Cl)c4F)c3n1)CC2 |  |  |
|  |  |  |  |  |  |  | Cc1c(F)cccc1S(=O)(=O)Nc1ccc(F)c(Nc2ncnc3ccc(-n4cnc5c(N)cccc54)nc23)c1F |  | IC50 ([1]; read-out: Kinase IC50 (nM) BRAF, tested form: HCl): < 1 nM; IC50 ([2]; read-out: Kinase IC50 (nM) CRAF, tested form: HCl): < 10 nM; HCT116 pERK Ymin % ([3]; HCT116 cells, Ymin in brackets, tested form: HCl): −7.4%; IC50 ([3]; read-out: HCT116 pERK IC50, HCT116 cells, class symbol before the bracket, tested form: HCl): < 0.5 µM |
|  |  |  |  | < 1 nM | > 50 nM | < 0.5 µM | Cc1c(F)cccc1S(=O)(=O)Nc1ccc(F)c(Nc2ncnc3ccc(-n4nc(C(=O)N5CCN(C)CC5)c5ccccc54)nc23)c1F | 5% |  |
|  |  |  |  | 1 to 10 nM | < 10 nM |  | O=S(=O)(Nc1ccc(F)c(Nc2ncnc3ccc(-n4cnc5ccccc54)nc23)c1F)c1cccc(Cl)c1C(F)(F)F |  | HCT116 pERK Ymin % [3, 10]: −8%; IC50 [3, 11]: < 0.5 µM |
|  |  |  |  | < 1 nM | 10 to 50 nM | < 0.5 µM | Cc1c(F)cccc1S(=O)(=O)Nc1ccc(F)c(Nc2ncnc3ccc(-n4nc(C(=O)N5CC6CCC(C5)N6)c5ccccc54)nc23)c1F | −9.4% |  |
| 1 to 10 nM | 10 to 50 nM | −17% | < 0.5 µM |  |  |  | O=S(=O)(Nc1ccc(F)c(Nc2ncnc3ccc(-c4nc(CN5CCOCC5)cs4)nc23)c1F)c1cccc(Cl)c1Cl |  |  |
|  |  |  |  |  |  |  | Cc1c(F)cccc1S(=O)(=O)Nc1ccc(F)c(Nc2ncnc3ccc(-n4nc(C(=O)N5CC(N6CCNCC6)C5)c5ccccc54)nc23)c1F |  | IC50 [1, 12]: < 1 nM; IC50 [2, 13]: 10 to 50 nM; HCT116 pERK Ymin % [3, 14]: −8.3%; IC50 [3, 15]: 1 to 10 µM |
|  |  |  |  | 1 to 10 nM | 10 to 50 nM | 1 to 10 µM | Cc1c(Cl)cccc1S(=O)(=O)Nc1ccc(F)c(Nc2ncnc3ccc(-n4nc(C(=O)N5CCOCC5)cc4C)nc23)c1F | −1% |  |
| 1 to 10 nM | 10 to 50 nM | 0% | < 0.5 µM |  |  |  | COC1CCCN(c2cccc3c2ncn3-c2ccc3ncnc(Nc4c(F)ccc(NS(=O)(=O)c5cccc(Cl)c5Cl)c4F)c3n2)C1 (single isomer, unassigned) [587] |  |  |
| 1 to 10 nM | 10 to 50 nM | 11% | < 0.5 µM |  |  |  | O=S(=O)(Nc1ccc(F)c(Nc2ncnc3ccc(-n4cnc5c(N6CCC7(CCOC7)CC6)cccc54)nc23)c1F)c1cccc(Cl)c1Cl |  |  |
| < 1 nM | < 10 nM | −3% | < 0.5 µM |  |  |  | CCN1CCN(c2cccc3c2nnn3-c2ccc3ncnc(Nc4c(F)ccc(NS(=O)(=O)c5cccc(Cl)c5Cl)c4F)c3n2)CC1 |  |  |
|  |  |  |  | < 1 nM | > 50 nM | 0.5 to 1 µM | CCN(C)C(=O)c1cn(-c2ccc3ncnc(Nc4c(F)ccc(NS(=O)(=O)c5ccccc5Cl)c4F)c3n2)c2ccccc12 | −10% |  |
|  |  |  |  | 1 to 10 nM | > 50 nM | 0.5 to 1 µM | Cc1c(Cl)cccc1S(=O)(=O)Nc1ccc(F)c(Nc2ncnc3ccc(-n4ccc(C(=O)N5CCN(C)CC5)n4)nc23)c1F | −0.4% |  |

| IC50 [1, 4] | IC50 [2, 5] | HCT116 pERK % Ymin (lowest value of the IC50 curve) ([3]; HCT116 cells) | IC50 [3, 6] | IC50 [1, 7] | IC50 [2, 8] | IC50 [3, 9] | SMILES | HCT116 pERK Ymin % ([3]; HCT116 cells, Ymin in brackets) | other results |
| --- | --- | --- | --- | --- | --- | --- | --- | --- | --- |
| 1 to 10 nM | 10 to 50 nM | 0% | < 0.5 µM |  |  |  | O=S(=O)(Nc1ccc(F)c(Nc2ncnc3ccc(-n4nnc5c(N6CC7CC6CO7)cccc54)nc23)c1F)c1cccc(Cl)c1Cl (stereo not drawn) |  |  |
| > 10 nM | 10 to 50 nM | −9% | < 0.5 µM |  |  |  | O=S(=O)(Nc1ccc(F)c(Nc2ncnc3ccc(-n4cnc5c(N6CC7(CCOCC7)C6)cccc54)nc23)c1F)c1cccc(Cl)c1Cl |  |  |
|  |  |  |  |  |  |  | Cc1c(Cl)cccc1S(=O)(=O)Nc1ccc(F)c(Nc2ncnc3ccc(-n4cc(C(=O)N5CCNC[C@@H]5C)c5ccccc54)nc23)c1F |  | IC50 ([1]; read-out: Kinase IC50 (nM) BRAF, tested form: formic acid salt): < 1 nM; IC50 ([2]; read-out: Kinase IC50 (nM) CRAF, tested form: formic acid salt): < 10 nM; HCT116 pERK Ymin % ([3]; HCT116 cells, Ymin in brackets, tested form: formic acid salt): 2.5%; IC50 ([3]; read-out: HCT116 pERK IC50, HCT116 cells, class symbol before the bracket, tested form: formic acid salt): < 0.5 µM |
| 1 to 10 nM | < 10 nM | −2% | < 0.5 µM |  |  |  | O=S(=O)(Nc1ccc(F)c(Nc2ncnc3ccc(-n4cnc5c(N6CC(CO)C6)cccc54)nc23)c1F)c1cccc(Cl)c1Cl |  |  |
|  |  |  |  |  |  |  | Cc1c(F)cccc1S(=O)(=O)Nc1ccc(F)c(Nc2ncnc3ccc(-n4nc(C(=O)N5CCC6(CCNCC6)C5)c5ccccc54)nc23)c1F |  | IC50 [1, 12]: < 1 nM; IC50 [2, 13]: 10 to 50 nM; HCT116 pERK Ymin % [3, 14]: −7.1%; IC50 [3, 15]: 1 to 10 µM |
|  |  |  |  | 1 to 10 nM | 10 to 50 nM | 1 to 10 µM | Cc1nn(-c2ccc3ncnc(Nc4c(F)ccc(NS(=O)(=O)c5cccc(Cl)c5C)c4F)c3n2)cc1C(=O)N1CCOCC1 | −5% |  |
|  |  |  |  | 1 to 10 nM | 10 to 50 nM | < 0.5 µM | COCCNC(=O)c1nn(-c2ccc3ncnc(Nc4c(F)ccc(NS(=O)(=O)c5cccc(F)c5C)c4F)c3n2)c2ccccc12 | −8% |  |
|  |  |  |  | < 1 nM | 10 to 50 nM | < 0.5 µM | Cc1c(F)cccc1S(=O)(=O)Nc1ccc(F)c(Nc2ncnc3ccc(-n4nc(C(=O)N5CCO[C@H](CO)C5)c5ccccc54)nc23)c1F | 11% |  |
|  |  |  |  | < 1 nM | 10 to 50 nM | 0.5 to 1 µM | Cc1c(Cl)cccc1S(=O)(=O)Nc1ccc(F)c(Nc2ncnc3ccc(-n4nc(C(=O)N5CCC(C)(O)CC5)c5ccccc54)nc23)c1F | −5.5% |  |
|  |  |  |  | < 1 nM | 10 to 50 nM | < 0.5 µM | Cc1c(F)cccc1S(=O)(=O)Nc1ccc(F)c(Nc2ncnc3ccc(-n4nc(C(=O)N5CCOCC5)c5ccccc54)nc23)c1F | −8.5% |  |
|  |  |  |  | 1 to 10 nM | > 50 nM | 0.5 to 1 µM | Cc1c(F)cccc1S(=O)(=O)Nc1ccc(F)c(Nc2ncnc3ccc(-n4nc(C(=O)N5CCN(CCO)CC5)c5ccccc54)nc23)c1F | −17.7% |  |
|  |  |  |  | < 1 nM | < 10 nM |  | O=S(=O)(Nc1ccc(F)c(Nc2ncnc3ccc(-n4cnc5ccccc54)nc23)c1F)c1cccc(F)c1C(F)(F)F |  | HCT116 pERK Ymin % [3, 10]: −3%; IC50 [3, 11]: < 0.5 µM |
|  |  |  |  | < 1 nM | 10 to 50 nM | < 0.5 µM | O=C(c1nn(-c2ccc3ncnc(Nc4c(F)ccc(NS(=O)(=O)c5cccc(Cl)c5Cl)c4F)c3n2)c2ccccc12)N1CCC(O)CC1 | −13% |  |
|  |  |  |  | 1 to 10 nM | 10 to 50 nM | < 0.5 µM | Cc1c(Cl)cccc1S(=O)(=O)Nc1ccc(F)c(Nc2ncnc3ccc(-n4nc(C(=O)N5CC(O)C5)c5ccccc54)nc23)c1F | −14% |  |
|  |  |  |  | < 1 nM | < 10 nM | 1 to 10 µM | Cc1c(Cl)cccc1S(=O)(=O)Nc1ccc(F)c(Nc2ncnc3ccc(-n4cc(C(N)=O)nc4C)nc23)c1F | 2.0% |  |
| < 1 nM | 10 to 50 nM | 6% | < 0.5 µM |  |  |  | O=S(=O)(Nc1ccc(F)c(Nc2ncnc3ccc(-n4cnc5c(N6CCC(N7CCCC7)CC6)cccc54)nc23)c1F)c1cccc(Cl)c1Cl |  |  |
|  |  |  |  | 1 to 10 nM | < 10 nM | < 0.5 µM | Cc1c(F)cccc1S(=O)(=O)Nc1ccc(F)c(Nc2ncnc3ccc(-n4nc(C(=O)NCCCO)c5ccccc54)nc23)c1F | −9.4% |  |

| SMILES | IC50 [1, 4] | IC50 [2, 5] | HCT116 pERK % Ymin (lowest value of the IC50 curve) ([3]; HCT116 cells) | IC50 [3, 6] | IC50 [1, 7] | IC50 [2, 8] | IC50 [3, 9] | HCT116 pERK Ymin % ([3]; HCT116 cells, Ymin in brackets) | other results |
| --- | --- | --- | --- | --- | --- | --- | --- | --- | --- |
| CN(C)S(=O)(=O)c1cn(-c2ccc3ncnc(Nc4c(F)ccc(NS(=O)(=O)c5ccccc5Cl)c4F)c3n2)c2ccccc12 |  |  |  |  | 1 to 10 nM | < 10 nM | < 0.5 µM | −12% |  |

Read-outs that look alike come from different tables or passages of the source.
